Patent US9340577B2, “HLA binding motifs and peptides and their uses” (priority 1992, dated 2016)

How the values were obtained:
Assay in all cases: biochemical
[1] = molecular target: DRB1*1501 (Homo sapiens, UniProt P01903+P01911)
[2] = molecular target: DR7 (DRB1*0701) (Homo sapiens, UniProt P01903+P01911, A100R/A102G/A103Q/D57E/D86V/E43K/F76Y/K127E/L162R/M171V/P40G/Q125H/Q99D/R33Q/R42Y/R54Q/S133A/S66F/T210M/V115G/Y107V/Y59L/Y89S)
[3] = molecular target: DRB1*1302 (Homo sapiens, UniProt P01903+P01911, A100E/A169T/K41T/L162R/M171V/P40S/Q125H/Q178H/Q39Y/Q99D/R42S/S66N/T262R/V115G/W38E/Y61H)
[4] = molecular target: DRB1*0405 (Homo sapiens, UniProt P01903+P01911, A100R/A169T/D86S/F76Y/I96L/K127E/L162R/M171V/N62H/P40V/Q125Y/R42H/S133A/S149N/S66Y/V115G/V209L/W38E); assay type: binding
[5] = molecular target: HLA-A*0201 (HLA-A2.1) (Homo sapiens, UniProt P04439, D140Y/D185E/D98H/E176V/E277Q/G131W/G231S/I119V/I121R/I166T/I218V/L300P/L318F/N151K/N90K/P208A/P217A/Q86G/Q94H/R138H/R169H/T345S)
[6] = molecular target: A*3002 (Homo sapiens, UniProt P04439, D101N/D140H/D185E/E176R/F33S/G80R/H175R/K168Q/Q94H/R138E/R41S/V100E); assay type: binding
[7] = molecular target: HLA-A1 (A*0101) (Homo sapiens, UniProt P04439, A114D/A174V/A182V/D101N/D185E/E176A/E190D/L180R/Q94H/R68K/S129P/T187R/V100A/V91M/W191G)

| SMILES | IC50 [1] [nM] | IC50 [2] [nM] | also measured |
| --- | --- | --- | --- |
| CC(C)C[C@H](NC(=O)[C@H](CC(=O)O)NC(=O)[C@H](C)NC(=O)[C@H](Cc1ccccc1)NC(=O)[C@H](C)NC(=O)[C@H](Cc1ccccc1)NC(=O)[C@H](CC(=O)O)NC(=O)[C@H](Cc1ccc(O)cc1)NC(=O)[C@@H](NC(=O)[C@H](CCC(=O)O)NC(=O)[C@@H](N)CO)C(C)C)C(=O)N[C@H](C(=O)N[C@H](C(=O)N[C@H](C(=O)N[C@@H](Cc1ccc(O)cc1)C(=O)O)C(C)C)C(C)C)[C@@H](C)O [Peptide 85.0024] | 1150 | – | – |
| CC[C@H](C)[C@H](NC(=O)[C@H](Cc1c[nH]c2ccccc12)NC(=O)[C@H](CCC(=O)O)NC(=O)[C@@H]1CCCN1)C(=O)N[C@@H](CCC(=O)O)C(=O)N[C@@H](CCCNC(=N)N)C(=O)N[C@@H](CCC(N)=O)C(=O)N[C@H](C(=O)N[C@H](C(=O)N[C@@H](CC(C)C)C(=O)N[C@@H](CCC(N)=O)C(=O)N[C@@H](Cc1c[nH]cn1)C(=O)N[C@@H](CO)C(=O)N[C@@H](Cc1ccccc1)C(=O)N[C@@H](CC(N)=O)C(=O)O)C(C)C)[C@@H](C)O [Peptide 89.0049] | 12100 | – | – |
| CC(C)C[C@H](NC(=O)[C@H](C)NC(=O)[C@H](CO)NC(=O)[C@H](CC(C)C)NC(=O)[C@H](Cc1ccccc1)NC(=O)[C@H](CO)NC(=O)[C@@H](N)C(C)C)C(=O)N[C@@H](CCCCN)C(=O)N[C@@H](CC(C)C)C(=O)N[C@@H](Cc1ccccc1)C(=O)N[C@@H](CC(C)C)C(=O)N[C@@H](CCCCN)C(=O)NCC(=O)N[C@H](C(=O)N1CCC[C@H]1C(=O)O)C(C)C [Peptide 89.0053] | – | 569 | IC50 [3]: 1320 nM |
| CC[C@H](C)[C@H](NC(=O)[C@H](CC(N)=O)NC(=O)[C@H](CO)NC(=O)[C@@H](NC(=O)[C@@H](NC(=O)[C@H](CC(C)C)NC(=O)[C@H](CC(C)C)NC(=O)[C@@H]1CCCN1C(=O)[C@@H]1CCCN1C(=O)[C@H](CS)NC(=O)[C@H](CCCCN)NC(=O)[C@H](CC(C)C)NC(=O)[C@H](CCC(N)=O)NC(=O)[C@H](CCSC)NC(=O)[C@@H](N)CC(C)C)[C@@H](C)CC)[C@@H](C)O)C(=O)O [Peptide 89.0057] | – | 1170 | – |
| CC[C@H](C)[C@H](NC(=O)CNC(=O)[C@H](Cc1ccc(O)cc1)NC(=O)[C@H](C)N)C(=O)N[C@@H](CO)C(=O)N[C@@H](Cc1ccccc1)C(=O)N[C@@H](CCSC)C(=O)N[C@@H](CCC(=O)O)C(=O)N[C@@H](CC(C)C)C(=O)N[C@H](C(=O)N[C@@H](CCCNC(=N)N)C(=O)N1CCC[C@H]1C(=O)N[C@@H](Cc1ccccc1)C(=O)N[C@@H](CCCCN)C(=O)N[C@@H](CO)C(=O)O)C(C)C [Peptide 89.0060] | 1820 | – | – |
| CC[C@H](C)[C@H](NC(=O)[C@@H](NC(=O)[C@H](CCSC)NC(=O)[C@H](CS)NC(=O)[C@@H](NC(=O)[C@H](CCC(=O)O)NC(=O)[C@@H]1CCCN1C(=O)[C@@H](NC(=O)[C@H](CO)NC(=O)[C@H](CC(C)C)NC(=O)[C@H](CC(C)C)NC(=O)[C@H](CC(N)=O)NC(=O)[C@@H](N)CO)[C@@H](C)CC)[C@@H](C)O)C(C)C)C(=O)N[C@@H](CCC(=O)O)C(=O)N1CCC[C@H]1C(=O)O [Peptide 89.0067] | – | 194 | – |
| CC[C@H](C)[C@H](NC(=O)[C@H](CCC(N)=O)NC(=O)[C@@H](NC(=O)[C@@H](NC(=O)[C@@H]1CCCN1C(=O)[C@@H]1CCCN1C(=O)[C@@H](NC(=O)[C@H](CCCCN)NC(=O)[C@@H](NC(=O)[C@@H](NC(=O)[C@H](CC(N)=O)NC(=O)[C@@H](N)CC(C)C)[C@@H](C)O)C(C)C)[C@@H](C)CC)[C@@H](C)O)C(C)C)C(=O)N[C@@H](CO)C(=O)N[C@H](C(=O)NCC(=O)O)[C@@H](C)O [Peptide 90.0028] | 12100 | – | – |
| CC[C@H](C)[C@H](NC(=O)[C@H](CCC(=O)O)NC(=O)[C@H](CO)NC(=O)[C@H](CC(=O)O)NC(=O)[C@H](CC(=O)O)NC(=O)[C@H](CCSC)NC(=O)[C@@H](NC(=O)[C@H](CC(=O)O)NC(=O)[C@H](CC(N)=O)NC(=O)[C@@H](N)CC(=O)O)C(C)C)C(=O)N[C@@H](C)C(=O)N[C@@H](Cc1ccc(O)cc1)C(=O)N[C@@H](CCCCN)C(=O)N[C@@H](Cc1ccc(O)cc1)C(=O)N[C@@H](C)C(=O)O [Peptide 90.0069] | – | 6410 | – |
| CC[C@H](C)[C@H](NC(=O)[C@H](CO)NC(=O)[C@H](CC(N)=O)NC(=O)[C@@H](N)CCC(=O)O)C(=O)N[C@@H](CCC(N)=O)C(=O)N[C@@H](C)C(=O)N[C@@H](CC(=O)O)C(=O)N[C@H](C(=O)N[C@@H](CCC(=O)O)C(=O)N[C@@H](C)C(=O)N[C@@H](C)C(=O)N[C@@H](CCCNC(=N)N)C(=O)N[C@@H](C)C(=O)N[C@@H](CC(C)C)C(=O)N[C@@H](Cc1ccccc1)C(=O)O)[C@@H](C)O [Peptide 90.0078] | – | 5820 | – |
| CSCC[C@H](NC(=O)[C@H](Cc1ccc(O)cc1)NC(=O)[C@H](Cc1ccc(O)cc1)NC(=O)[C@@H](NC(=O)[C@@H](N)CO)C(C)C)C(=O)N[C@H](C(=O)N[C@@H](CC(=O)O)C(=O)N[C@@H](C)C(=O)NCC(=O)N[C@H](C(=O)N[C@@H](Cc1c[nH]c2ccccc12)C(=O)N[C@@H](CC(=O)O)C(=O)N[C@@H](CCCCN)C(=O)N[C@H](C(=O)N[C@@H](C)C(=O)O)[C@@H](C)O)[C@@H](C)O)[C@@H](C)O [Peptide 90.0182] | – | 1170 | IC50 [4]: 4060 nM |
| CC[C@H](C)[C@H](NC(=O)[C@H](Cc1ccc(O)cc1)NC(=O)[C@H](Cc1ccc(O)cc1)NC(=O)[C@@H](NC(=O)CN)C(C)C)C(=O)N[C@@H](CCCCN)C(=O)N[C@@H](CC(=O)O)C(=O)NCC(=O)N[C@@H](CC(=O)O)C(=O)N[C@H](C(=O)N[C@H](C(=O)N[C@@H](Cc1ccc(O)cc1)C(=O)N[C@@H](Cc1ccc(O)cc1)C(=O)N[C@H](C(=O)N[C@@H](CCC(N)=O)C(=O)O)C(C)C)[C@@H](C)O)[C@@H](C)O [Peptide 90.0216] | – | 3410 | IC50 [3]: 269 nM |
| CC[C@H](C)[C@H](NC(=O)[C@H](CCC(N)=O)NC(=O)[C@@H](NC(=O)[C@@H](N)CCC(=O)O)C(C)C)C(=O)N[C@@H](C)C(=O)N[C@@H](CC(C)C)C(=O)N[C@@H](CCC(=O)O)C(=O)N[C@@H](CO)C(=O)N[C@@H](CC(C)C)C(=O)N[C@@H](CO)C(=O)N[C@H](C(=O)N[C@H](C(=O)N[C@H](C(=O)N[C@@H](Cc1ccc(O)cc1)C(=O)N[C@@H](CC(N)=O)C(=O)O)[C@@H](C)CC)[C@@H](C)O)[C@@H](C)O [Peptide 90.0231] | 1150 | – | – |
| CC[C@H](C)[C@H](NC(=O)[C@H](Cc1ccc(O)cc1)NC(=O)[C@@H](NC(=O)[C@@H](N)CCC(=O)O)[C@@H](C)CC)C(=O)N[C@H](C(=O)N[C@@H](CCC(=O)O)C(=O)N[C@@H](CCC(=O)O)C(=O)N[C@H](C(=O)N[C@H](C(=O)N[C@@H](CS)C(=O)N[C@H](C(=O)N[C@@H](CC(C)C)C(=O)N[C@H](C(=O)N[C@@H](C)C(=O)NCC(=O)O)C(C)C)[C@@H](C)O)[C@@H](C)O)[C@@H](C)O)[C@@H](C)CC [Peptide 90.0251] | 15200 | – | – |
| CC(C)C[C@H](NC(=O)[C@H](CC(N)=O)NC(=O)[C@H](Cc1ccc(O)cc1)NC(=O)[C@H](CC(C)C)NC(=O)CNC(=O)[C@@H](NC(=O)[C@H](CC(N)=O)NC(=O)[C@@H](NC(=O)[C@@H](N)CC(C)C)[C@@H](C)O)[C@@H](C)O)C(=O)O [Peptide 1481.17] | – | – | IC50 [5]: 13600 nM |
| CC[C@H](C)[C@H](NC(=O)[C@@H](NC(=O)[C@@H]1CCCN1)[C@@H](C)O)C(=O)N[C@@H](CO)C(=O)N1CCC[C@H]1C(=O)N[C@@H](CO)C(=O)N[C@@H](Cc1ccc(O)cc1)C(=O)N[C@H](C(=O)N[C@@H](Cc1ccc(O)cc1)C(=O)N[C@@H](Cc1ccc(O)cc1)C(=O)O)[C@@H](C)O [Peptide 1553.03] | – | – | IC50 [6]: 1580 nM; IC50 [7]: 415 nM |
| CC[C@H](C)[C@H](NC(=O)[C@H](Cc1ccccc1)NC(=O)[C@H](CC(C)C)NC(=O)[C@@H](NC(=O)[C@H](CCC(N)=O)NC(=O)[C@@H](NC(=O)[C@H](Cc1c[nH]cn1)NC(=O)[C@H](CC(C)C)NC(=O)[C@@H](N)CCC(N)=O)[C@@H](C)O)C(C)C)C(=O)O [Peptide 9013.0103] | – | – | IC50 [5]: 1240 nM |
| CC[C@H](C)[C@H](N)C(=O)N[C@@H](CC(C)C)C(=O)N[C@@H](CC(N)=O)C(=O)N[C@H](C(=O)N[C@H](C(=O)N[C@@H](Cc1ccc(O)cc1)C(=O)N[C@@H](CC(C)C)C(=O)N[C@@H](Cc1c[nH]c2ccccc12)C(=O)N[C@@H](Cc1c[nH]c2ccccc12)C(=O)N[C@H](C(=O)O)C(C)C)[C@@H](C)O)[C@@H](C)O [Peptide 9013.0195] | – | – | IC50 [5]: 1020 nM |
| CC[C@H](C)[C@H](NC(=O)CNC(=O)[C@H](CC(C)C)NC(=O)[C@@H](N)[C@@H](C)O)C(=O)N[C@@H](CCSC)C(=O)N[C@H](C(=O)NCC(=O)N[C@H](C(=O)N[C@@H](CC(C)C)C(=O)N[C@H](C(=O)O)C(C)C)C(C)C)[C@@H](C)CC [Peptide 9013.0251] | – | – | IC50 [5]: 195 nM |
| CC(C)C[C@H](NC(=O)[C@H](CC(C)C)NC(=O)[C@@H](N)CO)C(=O)N[C@H](C(=O)N[C@@H](Cc1ccccc1)C(=O)N[C@@H](Cc1c[nH]c2ccccc12)C(=O)N[C@@H](CC(N)=O)C(=O)N1CCC[C@H]1C(=O)N1CCC[C@H]1C(=O)N[C@H](C(=O)N[C@H](C(=O)O)C(C)C)[C@@H](C)O)[C@@H](C)O [Peptide 9013.0256] | – | – | IC50 [5]: 55 nM |
